The values that follow come from ChEMBL document CHEMBL3593206, “SAR Studies of Exosite-Binding Substrate-Selective Inhibitors of A Disintegrin And Metalloprotease 17 (ADAM17) and Application as Selective in Vitro Probes” (J Med Chem, 2015).

Assay [1] addresses Matrix metalloproteinase-14 (Homo sapiens, UniProt P50281). The assay is described as follows: Inhibition of MMP14 (unknown origin) using Mca-KLPGL-Dnp-AR as substrate at 100 uM preincubated for 30 mins followed by substrate addition measured after 1 hr by fluorescence assay relative to control. A digest of the protocol:
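Inhibitor as 10-point 1:3 dilutions from 300 μM, 30 min at RT. Substrate added from a 30 μM 3× solution. Single fluorescence read (ex 324/em 393 nm) after 1 h at RT.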

In another assay the test system is ADAM17 (Homo sapiens). In words: Inhibition of ADAM17 in human SW480 cells assessed as inhibition of PMA-stimulated wild type PTK7 shedding at 25 to 100 uM after 16 hrs by Western blot analysis.

Molecules are shown by their SMILES.

Usually inhibition stands for the percentage by which the read-out fell short of the control. As to `CCC[C@H]1CNC(=O)C(=O)N1C[C@@H]1CCCN1C[C@@H](CC1CCCCC1)N1C[C@H](Cc2ccccc2)N(CCc2ccccc2)C(=O)C1=O`, the inhibition (in assay [1]; with ADAM17 (Homo sapiens)) was 0% each time.
